The target of experiment [1] is T1, T. brucei hexokinase 1 (TbHK1), WT (Trypanosoma brucei brucei, UniProt Q38C42).
T1 sequence (Q38C42 1-471): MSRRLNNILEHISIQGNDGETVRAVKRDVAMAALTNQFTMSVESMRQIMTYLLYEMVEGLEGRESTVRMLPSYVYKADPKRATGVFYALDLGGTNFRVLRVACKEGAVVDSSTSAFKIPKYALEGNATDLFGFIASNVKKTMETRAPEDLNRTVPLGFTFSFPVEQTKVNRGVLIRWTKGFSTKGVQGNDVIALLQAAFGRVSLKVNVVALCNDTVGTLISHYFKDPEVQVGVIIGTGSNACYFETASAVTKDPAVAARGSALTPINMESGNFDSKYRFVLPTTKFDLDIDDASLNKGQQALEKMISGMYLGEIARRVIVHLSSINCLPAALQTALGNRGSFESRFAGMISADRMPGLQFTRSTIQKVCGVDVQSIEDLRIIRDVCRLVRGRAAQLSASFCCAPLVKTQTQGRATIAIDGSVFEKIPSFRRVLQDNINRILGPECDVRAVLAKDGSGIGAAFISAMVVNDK
In words: Coupled hexokinase assay. The experiment is classed as biochemical.

Another experiment addresses T2, TbHK1 (Trypanosoma brucei brucei, UniProt Q38C42).
T2 sequence (Q38C42 1-471): T1 sequence (Q38C42 1-471)
To be noted: with respect to ATP; ref Sharlow et al., 2010b; cited from earlier work.

The subject of experiment [2] is HK from Plasmodium falciparum (PfHK). The settings on record: more potent on PfHK; ref Harris et al., 2013; cited from earlier work.

“Also recorded” adds a separate entry of the source.

Regarding `O=c1c2ccccc2sn1-c1ccccc1` [EbS, 2-phenyl-1,2-benzisothiazol-3(2H)-one], the “Reversibility of inhibition by dilution” value in experiment [1] (200-fold dilution of enzyme and inhibitor after pre-incubation) is given as “not reversible; also recorded: irreversible”. Moreover, the “Rescue of enzyme activity by DTT added after inhibitor incubation” value in experiment [1] (DTT 100 mM added after incubation with inhibitor) is “only modestly rescued enzyme activity”. Moreover, the Mode of inhibition entry at TbHK1 is reported as “mixed inhibitors”. Besides, in experiment [2], the “Potency against PfHK relative to TbHK1” value is around 10 fold.

(Values after paper PMC3862409 (International Journal for Parasitology, Drugs and Drug …, 2013).)
